We go through 8 molecules from patent US10526320B2, “Pyrrolidine derivatives as PPAR agonists” (GUANGDONG RAYNOVENT BIOTECH CO., LTD., priority 2016, dated 2020).

By UniProt entry, the sequences of proteins in these tests, tags left out. Where a name states a change or a piece, a line headed by the entry shows the natural chain unless it says otherwise.
UniProt P37231: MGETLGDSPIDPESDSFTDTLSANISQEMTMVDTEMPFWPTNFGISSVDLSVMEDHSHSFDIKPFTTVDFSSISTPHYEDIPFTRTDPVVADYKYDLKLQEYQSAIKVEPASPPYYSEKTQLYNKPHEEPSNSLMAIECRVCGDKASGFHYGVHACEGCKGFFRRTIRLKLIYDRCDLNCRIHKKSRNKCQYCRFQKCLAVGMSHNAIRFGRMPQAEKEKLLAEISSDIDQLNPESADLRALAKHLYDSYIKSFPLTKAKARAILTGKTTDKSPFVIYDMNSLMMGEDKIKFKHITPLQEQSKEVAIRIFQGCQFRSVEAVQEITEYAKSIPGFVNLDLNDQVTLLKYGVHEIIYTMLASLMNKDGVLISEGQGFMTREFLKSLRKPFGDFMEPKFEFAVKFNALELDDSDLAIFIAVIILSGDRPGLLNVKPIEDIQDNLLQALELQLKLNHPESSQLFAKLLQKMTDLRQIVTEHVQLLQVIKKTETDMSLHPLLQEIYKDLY

For one experiment, the target named is T1, PPAR Alpha (Homo sapiens, UniProt Q07869).
T1 sequence (Q07869 1-468): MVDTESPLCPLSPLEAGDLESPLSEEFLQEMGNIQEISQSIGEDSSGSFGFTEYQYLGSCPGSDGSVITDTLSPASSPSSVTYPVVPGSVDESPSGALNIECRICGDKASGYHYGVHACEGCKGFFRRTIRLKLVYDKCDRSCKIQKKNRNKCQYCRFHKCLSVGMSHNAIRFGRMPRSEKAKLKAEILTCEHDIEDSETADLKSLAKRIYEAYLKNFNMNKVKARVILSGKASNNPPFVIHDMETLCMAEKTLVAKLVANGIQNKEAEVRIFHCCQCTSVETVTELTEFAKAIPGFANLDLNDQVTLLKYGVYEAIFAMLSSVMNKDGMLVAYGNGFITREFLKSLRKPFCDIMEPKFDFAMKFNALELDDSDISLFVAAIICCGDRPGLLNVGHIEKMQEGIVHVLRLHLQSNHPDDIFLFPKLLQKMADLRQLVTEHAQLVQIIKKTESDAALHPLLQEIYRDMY
The experiment can be described thus: PathHunter NHR protein interaction / nuclear translocation agonist test, PPAR Alpha. In kind it is cell-based. Conditions: for Emax: read-out: PPAR Alpha Maximum Activation Response %.

A further experiment concerns the target PPAR Gamma (Homo sapiens, UniProt P37231). The experiment can be described thus: PathHunter NHR protein interaction / nuclear translocation agonist test, PPAR Gamma. It counts as cell-based. The following applies: for Emax: read-out: PPAR Gamma Maximum Activation Response %.

In the case of `CSc1ccc(C(=O)C2CN(C(=O)Oc3ccccc3)CC2Cc2cccc(OC(C)(C)C(=O)O)c2)cc1` (single isomer, unassigned) [Compound 50], the “PPAR Alpha Maximum Activation Response %” value on PPAR Alpha is reported as “III (key: 100% ≥ I ≥ 80%; 80% ≥ II ≥ 50%; III < 50%)”. With `CSc1ccc(C(=O)C2CN(C(=O)Oc3ccccc3)CC2c2cccc(OC(C)(C)C(=O)O)c2)cc1` (stereo not shown) [Compound 24], the Emax at PPAR Alpha fell in the range of 80 to 100%. For `CSc1ccc(C(=O)C2CN(C(=O)Oc3ccccc3)CC2Cc2cccc(OC(C)(C)C(=O)O)c2)cc1` (single isomer, unassigned) [Compound 49], the Emax on PPAR Gamma and on PPAR Alpha was 50 to 80% throughout. With `CSc1ccc(C(=O)[C@@H]2CN(C(=O)Oc3ccccc3)C[C@H]2CCc2cc(C)c(OC(C)(C)C(=O)O)c(C)c2)cc1` (single isomer, unassigned) [Compound 51], the Emax on PPAR Gamma and at PPAR Alpha was 80 to 100% in each case.

On to `CSc1ccc(C(=O)C2CN(C(=O)Oc3ccccc3)CC2c2cc(C)c(OC(C)(C)C(=O)O)c(C)c2)cc1` (single isomer, unassigned) [Compound 9], for which, on PPAR Alpha, the Emax fell in the range of 80 to 100%.

With `CSc1ccc(C(=O)C2CN(C(=O)Oc3ccccc3)CC2Cc2cc(C)c(OC(C)(C)C(=O)O)c(C)c2)cc1` (stereo not shown) [Compound 26], the Emax at PPAR Gamma and at PPAR Alpha was 80 to 100% in each case. As for `Cc1cc(CCC2CN(C(=O)Oc3ccccc3)CC2C(=O)c2ccc(Cl)cc2)cc(C)c1OC(C)(C)C(=O)O` (single isomer, unassigned) [Compound 66], the “PPAR Gamma Maximum Activation Response %” value on PPAR Gamma was “I (key: 100% ≥ I ≥ 80%; 80% ≥ II ≥ 50%; III < 50%)”. Also, the “PPAR Alpha Maximum Activation Response %” value on PPAR Alpha is “I (key: 100% ≥ I ≥ 80%; 80% ≥ II ≥ 50%; III < 50%)”. `Cc1cc(CCC2CN(C(=O)Oc3ccccc3)CC2C(=O)c2ccc(Cl)cc2)cc(C)c1OC(C)(C)C(=O)O` (single isomer, unassigned) [Compound 65]: the Emax on PPAR Gamma and on PPAR Alpha was 80 to 100% each time.
